Reference: BindingDB's records for doi:10.1021/bi035098j (Merck Research Laboratories, 2003)

Experiments:
[1] = target: T1, Tyrosine-protein phosphatase non-receptor type 1 [1-298] (Homo sapiens, UniProt P18031); assay: PTP1B and TCPTP Inhibition Assay; conditions: pH 6.3; 22 °C
T1 construct: 1-298
T1 sequence (P18031 whole entry): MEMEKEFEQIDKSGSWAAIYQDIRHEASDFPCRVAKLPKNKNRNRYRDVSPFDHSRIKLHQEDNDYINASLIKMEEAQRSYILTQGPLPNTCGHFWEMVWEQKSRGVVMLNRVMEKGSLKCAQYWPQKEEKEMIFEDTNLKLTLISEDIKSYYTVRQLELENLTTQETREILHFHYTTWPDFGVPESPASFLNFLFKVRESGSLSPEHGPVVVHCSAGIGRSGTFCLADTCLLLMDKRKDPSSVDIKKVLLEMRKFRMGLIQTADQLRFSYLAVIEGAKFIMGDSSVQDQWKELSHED

[2] = target: T2, Tyrosine-protein phosphatase non-receptor type 2 (Homo sapiens, UniProt P17706); assay: PTP1B and TCPTP Inhibition Assay; conditions: pH 6.3; 22 °C
T2 sequence (P17706 whole entry): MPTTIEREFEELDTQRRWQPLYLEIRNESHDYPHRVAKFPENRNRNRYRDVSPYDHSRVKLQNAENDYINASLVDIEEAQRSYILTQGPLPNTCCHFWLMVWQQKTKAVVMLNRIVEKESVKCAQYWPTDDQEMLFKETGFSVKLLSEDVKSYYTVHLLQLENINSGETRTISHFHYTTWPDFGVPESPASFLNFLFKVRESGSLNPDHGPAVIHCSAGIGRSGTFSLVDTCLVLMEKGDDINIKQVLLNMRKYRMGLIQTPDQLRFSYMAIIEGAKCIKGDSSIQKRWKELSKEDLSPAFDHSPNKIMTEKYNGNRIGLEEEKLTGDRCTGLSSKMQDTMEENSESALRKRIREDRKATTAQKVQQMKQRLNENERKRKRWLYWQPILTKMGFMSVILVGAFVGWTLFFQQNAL

O=P(O)(O)c1cccc(-c2ccc(CC(Cc3ccc(C(F)(F)P(=O)(O)O)cc3)(c3ccccc3)n3nnc4ccccc43)cc2)c1 (stereo not drawn)
pIC50 [1]: 8.52 | pIC50 [2]: 8.52

O=P(O)(O)C(F)(F)c1ccc(CC(Cc2ccc(C(F)(F)P(=O)(O)O)cc2)(c2ccccc2)n2nnc3ccccc32)cc1
pIC50 [1]: 7.80

pIC50: −log10 of the molar value.
